Assays:
[1] = glass transition temperature (Tg) of the drug; format: physicochemical; conditions: for Tg: Table B, unless noted Tg measured at less than 10% RH
Description: In a first aspect, the invention comprises a solid composition comprising a plurality of particles. The particles comprise a low-solubility drug and a poloxamer. The drug is in intimate contact with the poloxamer in the particles. Collectively, the drug and poloxamer constitute at least 50 wt % of the particles. At least a substantial portion of the drug in the composition is amorphous. The Tg of the drug is at least 50° C. Unless otherwise noted, as used herein the Tg refers to the Tg measured at less than 10% RH.
Such Tg values may represent that of drug dispersed in the amorphous portions of the poloxamer or the Tg of drug-rich phases or domains. […] The Tg of the drug may be at least about 60° C., at least about 70° C., or even at least about 80° C. The Tg of a drug can be determined using standard analytical techniques well known in the art, including by a dynamic mechanical analyzer (DMA), a dilatometer, a dielectric analyzer, and by differential scanning calorimetry (DSC).

Substance | Tg [1] | Tg,drug ([1]; at 0% RH) | Log P (Log P of the drug)
N-(1,1-dimethylethyl) decahydro-2-[(2R,3R)-2-hydroxy-3-[(3-hydroxy-2-methylbenzoyl)amino]-4-(phenylthio)butyl]-3-isoquinolinecarboxamide (3s, 4aS, 8aS)-monomethanesulfonate [Drug 3] | 116 °C | 119 °C | about 4.1
quinoxaline-2-carboxylic acid [4(R)-carbamoyl-1(S)-3-fluorobenzyl)-2(S),7-dihydroxy-7-methyl-octyl]amide | 69 °C | – | –

— US8974823B2, “Solid compositions of low-solubility drugs and poloxamers” (Bend Research, Inc., priority 2003, dated 2015)
